Target: Tubulin alpha chain (Sus scrofa) (UniProt P02550)
Assay: Compound was tested for effective concentration for tubulin polymerization expressed as ratio of compound relative to taxol (EC0.01 at 5 uM)
Assay type: functional

Chains of the proteins cited; added tags and fusions are not shown.
UniProt P02550, whole entry, looked up: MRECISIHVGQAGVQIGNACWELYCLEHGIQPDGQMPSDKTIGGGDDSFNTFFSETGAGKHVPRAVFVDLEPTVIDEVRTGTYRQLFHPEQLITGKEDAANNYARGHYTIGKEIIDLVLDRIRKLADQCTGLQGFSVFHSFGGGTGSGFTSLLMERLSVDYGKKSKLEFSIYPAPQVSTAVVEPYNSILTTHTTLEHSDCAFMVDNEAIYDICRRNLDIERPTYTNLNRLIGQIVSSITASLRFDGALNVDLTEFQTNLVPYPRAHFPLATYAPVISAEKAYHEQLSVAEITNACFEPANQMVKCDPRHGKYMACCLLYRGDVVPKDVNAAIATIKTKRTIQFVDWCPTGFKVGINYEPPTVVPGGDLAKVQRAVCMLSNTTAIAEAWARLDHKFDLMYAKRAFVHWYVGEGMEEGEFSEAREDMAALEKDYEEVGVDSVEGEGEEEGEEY

- Ratio: 1
Structure (SMILES): CC(=O)O[C@H]1C(=O)[C@@]2(C)[C@H]([C@H](OC(=O)c3ccccc3)[C@]3(O)C[C@H](OC(=O)[C@H](O)[C@@H](NC(=O)c4ccccc4)c4ccccc4)C(C)=C1C3(C)C)[C@]1(OC(C)=O)CO[C@@H]1C[C@@H]2O [PACLITAXEL]
